Amino acid sequences for entries named in this document (tags omitted). A change or cut given only in a name is not applied to a line headed by its entry.
UniProt Q9H3S4: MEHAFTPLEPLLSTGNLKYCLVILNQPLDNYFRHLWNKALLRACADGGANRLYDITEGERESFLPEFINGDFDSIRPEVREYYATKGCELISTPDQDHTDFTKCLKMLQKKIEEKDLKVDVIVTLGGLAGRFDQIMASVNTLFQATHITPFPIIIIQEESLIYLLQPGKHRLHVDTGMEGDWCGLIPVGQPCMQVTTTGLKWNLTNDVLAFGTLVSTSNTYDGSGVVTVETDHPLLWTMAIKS

In patent publication US20250388584A1, “TPK AGONIST AND METHOD FOR TREATING NEURODEGENERATIVE DISEASES USING SAME” (SHANGHAI RAISING PHARMACEUTICAL CO., LTD., priority 2022, published 2025):

Molecular target: TPK enzyme (Homo sapiens (Human), UniProt Q9H3S4)
Experiment: TPK enzyme activity test
Format: biochemical
Conditions: promoting effect on TPK enzyme activity

pEC50: 5.87
Compound: Cc1ccc2[nH]c3c(=O)n(CCC(=O)NCCN(C)c4cccc5c4CCCC5)cnc3c2c1 [Compound 130, N-(2-(methyl(5,6,7,8-tetrahydronaphthalen-1-yl)amino)ethyl)-3-(8-methyl-4-oxo-4,5-dihydro-3H-pyrimido[5,4-b]indol-3-yl)propanamide]

pEC50: −log10 of the molar value.
